Experimental findings from patent US20060104951A1, “Akt and regulation of RA synovial fibroblast apoptosis” (priority 2004, published 2006) are described below.

The test system of the data set is rheumatoid arthritis synovial fibroblasts (RASF). Nature of the data set: ATPlite-M cytotoxicity assay in RASF. Particulars: TNF-α alone, 18 hours.

On to tumor necrosis factor-alpha [TNF-α], for which the “cytotoxicity (ATPlite)” value is listed as “Neither treatment with TNF-α nor wortmannin alone could induce cytotoxicity”.
